The target of experiment [1] is T1, Eukaryotic translation initiation factor 4E (Homo sapiens, UniProt P06730). In words: Inhibition of recombinant human 10His-tagged eIF4E expressed in Escherichia coli BL21 (DE3) cells by catalytic enzyme-linked click chemistry assay.
For experiment [2], the target named is T1, Eukaryotic translation initiation factor 4E. Put plainly: Binding affinity to recombinant human 10His-tagged eIF4E expressed in Escherichia coli BL21 (DE3) cells assessed as dissociation constant by surface plasmon resonance analysis. For orientation: SPR reads the build-up and loss of mass on a sensor chip optically.

Sequences of proteins named here, by UniProt entry; tags and fusion partners are left off.
UniProt P06730, whole entry: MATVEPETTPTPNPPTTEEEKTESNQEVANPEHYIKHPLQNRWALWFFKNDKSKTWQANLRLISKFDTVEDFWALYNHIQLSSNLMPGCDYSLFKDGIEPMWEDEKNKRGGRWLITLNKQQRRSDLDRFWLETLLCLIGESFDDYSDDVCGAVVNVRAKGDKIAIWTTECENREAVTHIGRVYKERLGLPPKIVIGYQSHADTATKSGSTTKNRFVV

For the compound `CC[C@H](C)[C@H](NC(=O)[C@H](CCCNC(=N)N)NC(=O)[C@@H](NC(=O)CNC(C)=O)[C@@H](C)O)C(=O)N[C@H](C(=O)N[C@@H](Cc1ccc(O)cc1)C(=O)N[C@@H](CC(=O)O)C(=O)N[C@@H](CCCNC(=N)N)C(=O)N[C@@H](CCCCN)C(=O)N[C@@H](Cc1ccccc1)C(=O)N[C@@H](CC(C)C)C(=O)N[C@@H](CCSC)C(=O)N[C@@H](CCC(=O)O)C(=O)N[C@@H](CS)C(=O)N[C@@H](CCCNC(=N)N)C(=O)N[C@@H](CC(N)=O)C(N)=O)[C@@H](C)CC`, the IC50 in experiment [1] was found to be 60 nM. Besides, in experiment [2], the Kd is on record as 11 10^-3/s.

As a reminder, the IC50 is the midpoint of a concentration-inhibition curve.

The values are drawn from ChEMBL document CHEMBL4765410, “A cell-penetrant lactam-stapled peptide for targeting eIF4E protein-protein interactions” (Eur J Med Chem, 2020).
